In general, Ki refers to a dissociation constant, usually derived from enzyme kinetics or from competition with a known ligand.

Protein sequences, listed by entry. Tags and fused reporters are not part of them.
UniProt P20272, whole entry: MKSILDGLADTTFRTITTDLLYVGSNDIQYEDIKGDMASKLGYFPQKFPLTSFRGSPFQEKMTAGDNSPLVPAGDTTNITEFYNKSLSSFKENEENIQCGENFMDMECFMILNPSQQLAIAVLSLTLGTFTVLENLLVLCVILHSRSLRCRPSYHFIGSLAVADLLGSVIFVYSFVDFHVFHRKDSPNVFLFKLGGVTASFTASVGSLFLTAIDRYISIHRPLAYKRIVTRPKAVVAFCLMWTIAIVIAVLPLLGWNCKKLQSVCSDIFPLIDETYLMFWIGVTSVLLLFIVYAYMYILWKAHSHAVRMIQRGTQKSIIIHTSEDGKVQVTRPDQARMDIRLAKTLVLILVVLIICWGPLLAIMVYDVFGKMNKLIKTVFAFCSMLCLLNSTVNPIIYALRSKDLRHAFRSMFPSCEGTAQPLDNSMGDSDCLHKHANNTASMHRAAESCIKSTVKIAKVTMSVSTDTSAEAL
UniProt O08914, whole entry: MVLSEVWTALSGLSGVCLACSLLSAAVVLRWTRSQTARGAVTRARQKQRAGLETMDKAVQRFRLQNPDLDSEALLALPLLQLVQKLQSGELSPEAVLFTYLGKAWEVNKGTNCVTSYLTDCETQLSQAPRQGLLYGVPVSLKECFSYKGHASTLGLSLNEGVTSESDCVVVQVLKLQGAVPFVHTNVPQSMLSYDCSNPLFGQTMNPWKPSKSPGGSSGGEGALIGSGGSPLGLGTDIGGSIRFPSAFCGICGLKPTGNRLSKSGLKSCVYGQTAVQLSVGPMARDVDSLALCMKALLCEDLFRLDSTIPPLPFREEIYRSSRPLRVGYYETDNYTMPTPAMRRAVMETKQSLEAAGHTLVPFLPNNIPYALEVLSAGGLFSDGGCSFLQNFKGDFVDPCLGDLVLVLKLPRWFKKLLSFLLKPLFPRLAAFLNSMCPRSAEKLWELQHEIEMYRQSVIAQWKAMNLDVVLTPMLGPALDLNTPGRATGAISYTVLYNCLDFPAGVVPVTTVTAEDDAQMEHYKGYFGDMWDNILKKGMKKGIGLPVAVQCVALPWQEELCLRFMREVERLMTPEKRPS

Molecules are shown by their SMILES.

Assay [1] addresses T1, CB1 receptor (Rattus norvegicus, UniProt P20272).
T1 construct: brain membranes were prepared from frozen rat brains; from tissue; host or cells: membranes from frozen rat brains
As to the kind of experiment: biochemical. It is filed as binding.

Assay [2] concerns the target T2, anandamide amidase (Mus musculus, UniProt O08914).
T2 construct: The assay of the anandamide amidase in intact neuroblastoma cells; endogenous in cells; host or cells: N18TG2 neuroblastoma cells
As to the kind of experiment: Anandamide amidase assay in intact neuroblastoma cells ([3H]anandamide levels). It is filed as cell-based.

Assay [3] deals with male MF1 mice. The assay can be described thus: Tail flick test of analgesia ("rat flick test"). Particulars: intravenous, tail flick at 12 minutes, percent maximum possible effect. Background: Thermal pain tests record how soon the animal reacts.

As for `CCCCC/C=C\C/C=C\C/C=C\C/C=C\CCCC(=O)NCCO` [arachidonoyl ethanolamide, reference compound], in assay [1], the inhibitory constant (Ki) came out at 70 nM.

With `CCCCCCCCCCCCCCCCS(=O)(=O)F` [palmitylsulfonyl fluoride], the “potency at inhibiting anandamide amidase relative to phenylmethylsulfonyl fluoride” value in assay [2] (intact neuroblastoma cells) is “more than 100 fold”. Besides, the “radioactivity found in anandamide rather than in cleavage products” value in assay [2] (nanomolar amounts of inhibitor, N18TG2 cells) is on record as “over 50%”. Moreover, in assay [3], the “effectiveness at producing analgesia relative to anandamide alone” value is “about 3 ×” and the “effectiveness at producing analgesia relative to the vehicle” value was “about 13 ×”.

Source of the values: US6579900B2, “Anandamide amidase inhibitors as analgesic agents” (priority 1996, dated 2003).
